Reference: patent publication US11806364B2, “Method for producing myeloid-derived suppressor cells, myeloid-derived suppressor cells produced thereby, and methods thereof” (Industry-Academic Cooperation Foundation, Yonsei University, priority 2017, dated 2023)

Tests used:
bone marrow cells = test: Cytokine applied in place of the TLR agonist, formation of M-MDSCs and dendritic cells; type: cell-based; conditions: 3 method, day 6
Procedure: In order to identify association of TLR stimulation-induced cytokines with formation of M-MDSCs and inhibition of secondary differentiation as identified in Example 10, the 3 method in Example 1 was performed, except that TNF-α, IL-6, PGE2, IFN-α, or IFN-β is applied in place of the TLR agonist. On day 6 of culture, it was identified whether M-MDSCs and dendritic cells are formed.
Additionally, in order to identify whether formation of PDCA-1^+ M-MDSCs, which had been induced in a case of being treated with a TLR9 agonist, was caused by such a cytokine, distribution of CD11c^−CD11b^+Ly6G^−Ly6C^+PDCA-1^+ and CD11c^−CD11b^+Ly6G^−Ly6C^+PDCA-1^− was checked for the cells obtained on day 6 of culture as described above.

Ly6C^+ M-MDSCs = test: Ly6C+ M-MDSCs treated with GM-CSF, proportions of CD11c+ cells; type: cell-based
Procedure: The 3 method in Example 1 was performed, except that a TLR2 agonist, a TLR9 agonist, or IFN-β is applied, and then only Ly6C^+ M-MDSCs are collected on day 6 of culture. Then, GM-CSF was applied in the same manner as in Example 8 and culture was performed for 3 days. Subsequently, proportions of CD11c^+ cells were checked for the respective treatments.
Additionally, a TLR2 agonist was applied using the 3 method in Example 1, with IFN-β being further applied in an amount of 5 ng/ml or 25 ng/ml. Then, on day 6 of culture, only Ly6C^+ M-MDSCs were collected. Subsequently, GM-CSF was applied in the same manner as in Example 8 and culture was performed for 3 days. Then, proportions of CD11c^+ cells were checked for the respective treatments.

B1: IFN-β: type I IFN (protein, UniProt P01574 22-187, looked up)
Interferon beta: MSYNLLGFLQRSSNFQCQKLLWQLNGRLEYCLKDRMNFDIPEEIKQLQQFQKEDAALTIYEMLQNIFAIFRQDSSSTGWNETIVENLLANVYHQINHLKTVLEEKLEKEDFTRGKLMSSLHLKRYYGRILHYLKAKEYSHCAWTIVRVEILRNFYFINRLTGYLRN
With B1 as the molecule, how does the “M-MDSCs are formed and differentiation into dendritic cells is inhibited” value (bone marrow cells) read?
The value was “in a concentration-dependent manner”.

And the “differentiation into dendritic cells (proportions of CD11c^+ cells)” value (Ly6C^+ M-MDSCs; IFN-β 5 ng/ml or 25 ng/ml in combination with the TLR2 agonist, GM-CSF for 3 days)?
Its value is “increased in a concentration-dependent manner”.

What about the “differentiation into dendritic cells (proportions of CD11c^+ cells)” value (Ly6C^+ M-MDSCs; Ly6C^+ M-MDSCs of day 6, GM-CSF for 3 days) of the same molecule?
The value was “induced similarly to a case of being treated with a TLR9 agonist”.
